Source: BindingDB's records for doi:10.1016/s0165-6147(97)01043-2 (Roche Bioscience, 1997)

Protein sequences, listed by entry. Tags and fused reporters are not part of them.
UniProt P32305, whole entry: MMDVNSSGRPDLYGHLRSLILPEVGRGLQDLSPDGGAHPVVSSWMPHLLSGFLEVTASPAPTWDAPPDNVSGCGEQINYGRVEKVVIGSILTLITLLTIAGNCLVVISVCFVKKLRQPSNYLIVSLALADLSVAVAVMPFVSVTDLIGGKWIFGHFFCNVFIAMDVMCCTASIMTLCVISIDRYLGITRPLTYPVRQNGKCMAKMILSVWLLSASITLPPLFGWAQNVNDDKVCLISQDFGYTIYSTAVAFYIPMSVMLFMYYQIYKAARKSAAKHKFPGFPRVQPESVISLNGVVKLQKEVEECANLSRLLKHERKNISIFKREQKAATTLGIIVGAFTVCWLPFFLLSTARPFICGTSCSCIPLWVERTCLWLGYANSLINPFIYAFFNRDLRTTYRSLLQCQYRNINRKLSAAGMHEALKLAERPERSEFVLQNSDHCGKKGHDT

Biological target: 5-hydroxytryptamine receptor 7 (Rattus norvegicus, UniProt P32305)

COc1ccc2[nH]cc(CCN)c2c1 [tryptamine, 5-Methoxy]
Ki: 1 nM
